Test results from ChEMBL document CHEMBL1158842, “Antiproliferative triterpene saponins from Entada africana” (J Nat Prod, 2006).

Columns and labels:
WEHI-164 = assay: Antiproliferative activity against mouse WEHI164 cells after 72 hrs by MTT conversion assay
J774.A1 = assay: Antiproliferative activity against mouse J774A1 cells after 72 hrs by MTT conversion assay; assay type: cell-based

`Sc1ncnc2nc[nH]c12` was tested, and the IC50 (WEHI-164) was 15 nM and the IC50 (J774.A1) was 3 nM.
